PubChem BioAssay AID951 (NMMLSC, 2007)
This is a selection; strong and weak results do not stand in their true shares. Calls of active or inactive are those of the source. No stated cut-off is given here; in the data, active means inhibition above about 40%.

Amino acid sequences for entries named in this document (tags omitted).
UniProt Q9HD36, whole entry: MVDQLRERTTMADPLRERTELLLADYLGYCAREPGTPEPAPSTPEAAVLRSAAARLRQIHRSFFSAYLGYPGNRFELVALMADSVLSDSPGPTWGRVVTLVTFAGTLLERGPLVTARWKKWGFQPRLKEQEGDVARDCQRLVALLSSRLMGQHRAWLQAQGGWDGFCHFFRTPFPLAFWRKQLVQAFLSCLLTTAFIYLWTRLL

molecular target: Bcl-2-like protein 10 (Homo sapiens) (UniProt Q9HD36); assay: inhibitors of Bim-Bcl-B binding, primary screen, biochemical, multiplexed, human Bcl-2 family (AID 951); conditions: bead-based flow cytometry, Bim peptide-Bcl-B binding; at 10 µM; active compounds read high;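 further: 0% = tracer peptide without compound and 100% = reference inhibitor peptide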

Compound	inhibition
O=[N+]([O-])c1cc([N+](=O)[O-])c(-n2nnc3ccccc32)c([N+](=O)[O-])c1	inactive: -7%
Cc1nc2ccc3ccccc3c2s1.O=[N+]([O-])c1cc([N+](=O)[O-])c(O)c([N+](=O)[O-])c1	inactive: -8%
COc1ccccc1OP(C)(=O)Nc1c(C)cccc1C (centres undefined)	inactive: 0%
CN1CCCCC1COC(=O)C1(O)c2ccccc2CCc2ccccc21 (centres undefined)	inactive: -10%
CCCOc1ccc(NP(C)(=O)Oc2ccc(Cl)cc2)cc1 (centres undefined)	inactive: -5%
CP(=O)(Nc1ccc(SC(F)(F)F)cc1)Oc1ccccc1 (centres undefined)	inactive: -8%
CC1=NCCc2c1[nH]c1ccccc21.O=[N+]([O-])c1cc([N+](=O)[O-])c(O)c([N+](=O)[O-])c1	inactive: -2%
CCOC(=O)c1ccc(NP(C)(=O)Oc2cc(C)cc(C)c2)cc1 (centres undefined)	inactive: 0%
Cc1cc(C)cc(OP(C)(=O)Nc2ccc(C)cc2C)c1 (centres undefined)	inactive: -4%
Cc1ccc(C)c(NP(C)(=O)Oc2ccccc2)c1 (centres undefined)	inactive: -5%
Cc1cc(C)cc(OP(C)(=O)Nc2ccccn2)c1 (centres undefined)	inactive: -12%
CP(=O)(Nc1cccc(Br)c1)Oc1ccccc1 (centres undefined)	inactive: 0%
CCN(CC)CCCOC(=O)C(O)(c1ccccc1)c1ccccc1	inactive: -1%
O=[N+]([O-])c1ccc2c(c1)C=Nc1ccccc1O2	inactive: -4%
Cc1cccc(C)c1OP(C)(N)=O (centres undefined)	inactive: -2%
CC(C)(C)c1ccc(OP(C)(=O)Nc2ccc(SC(F)(F)F)cc2)cc1 (centres undefined)	inactive: -4%
Cc1ccc(NP(C)(=O)Oc2ccccc2)c(C)c1 (centres undefined)	inactive: -5%
COc1ccccc1OP(C)(=O)Nc1ccc(C)cc1 (centres undefined)	inactive: 7%
CCOC(=O)c1ccc(NP(C)(=O)Oc2ccccc2)cc1 (centres undefined)	inactive: -7%
Cc1cc(C)cc(OP(C)(N)=O)c1 (centres undefined)	inactive: -2%
COc1ccc(OP(C)(=O)Nc2cccc(F)c2)cc1 (centres undefined)	inactive: 1%
COc1ccccc1OP(C)(=O)Nc1cc(Cl)ccc1C (centres undefined)	inactive: 0%
CP(=S)(Nn1cnnc1)Oc1ccccc1 (centres undefined)	inactive: -4%

Compound	inhibition
CP(=O)(Nc1ccccc1Br)Oc1ccccc1 (centres undefined)	inactive: 0%
COc1ccccc1OP(C)(=O)Nc1ccccc1 (centres undefined)	inactive: -3%
CP(=O)(Oc1ccccc1)OC(c1ccccc1)C(F)(F)F (centres undefined)	inactive: -5%
Cc1cccc(C)c1OP(C)(=O)Nc1ccc(SC(F)(F)F)cc1 (centres undefined)	inactive: 7%
Cc1cc(C)cc(OP(C)(=O)Nc2ccc(SC(F)(F)F)cc2)c1 (centres undefined)	inactive: 8%
CP(=O)(NC(=O)Nc1ccccc1)Oc1ccccc1 (centres undefined)	inactive: -2%
CCOC(=O)c1ccc(NP(C)(=O)Oc2ccc(OC)cc2)cc1 (centres undefined)	inactive: -14%
CCOP(C)(=S)SCC(=O)NC(C)C(=O)O (centres undefined)	inactive: 2%
CP(=O)(Nc1ccccn1)Oc1ccc(Cl)cc1 (centres undefined)	inactive: 1%
COc1ccc(OP(C)(=O)Nc2ccc(Br)cc2)cc1 (centres undefined)	inactive: -7%
CCN(CC)CC(O)COC(=O)C(O)(c1ccccc1)C1CCCCC1 (centres undefined)	inactive: -6%
CCc1ccc(OP(C)(=O)Nc2cccnc2)cc1 (centres undefined)	inactive: 0%
CP(=O)(Oc1ccccc1)N1CCOC1=O (centres undefined)	inactive: -3%
COc1ccccc1OP(C)(=O)Nc1ccccc1Br (centres undefined)	inactive: -5%
CC(C)(C)c1ccc(OP(C)(=O)O)cc1	inactive: 1%
CP(=O)(Nc1ccc(Cl)cc1)Oc1ccc(F)cc1 (centres undefined)	inactive: 0%
CN(C)C(=O)c1c([N+](=O)[O-])cc([N+](=O)[O-])cc1[N+](=O)[O-]	inactive: 0%
CCOC(=O)c1ccc(NP(C)(=O)Oc2ccc(Cl)cc2)cc1 (centres undefined)	inactive: -5%
CP(=O)(OC12CC3CC(CC(C3)C1)C2)OC12CC3CC(CC(C3)C1)C2	inactive: -10%
Cc1cc(C)cc(OP(C)(=O)Nc2cccc(C(F)(F)F)c2)c1 (centres undefined)	inactive: 0%
COc1ccccc1OP(C)(=O)Nc1ccc(C)c(C)c1 (centres undefined)	inactive: -3%
COc1ccc(OP(C)(=O)Nc2ccccc2Br)cc1 (centres undefined)	inactive: -1%
Cc1nc2ccc3ccccc3c2o1.O=[N+]([O-])c1cc([N+](=O)[O-])c(O)c([N+](=O)[O-])c1	inactive: 0%

Compound	inhibition
CP(=O)(Nc1ccc(Cl)cc1Cl)Oc1ccccc1 (centres undefined)	inactive: -4%
CP(=O)(OCCOc1ccccc1)OCCOc1ccccc1	inactive: -4%
COc1ccc(OP(C)(=O)Nc2ccccn2)cc1 (centres undefined)	inactive: -4%
CN(C)CCOC(=O)C(O)(c1ccccc1)C1CCCC1 (centres undefined)	inactive: -4%
Cc1c(NP(C)(=O)Oc2ccc(C(C)C)cc2)c(=O)n(-c2ccccc2)n1C (centres undefined)	inactive: 0%
O=[N+]([O-])c1cc([N+](=O)[O-])c(Nc2ccccn2)c([N+](=O)[O-])c1	inactive: -6%
COc1ccccc1OP(C)(=O)Nc1ccc(C)cc1C (centres undefined)	inactive: -5%
CP(=O)(Nc1ccccn1)Oc1ccccc1 (centres undefined)	inactive: -6%
CCc1ccc(OP(C)(=O)O)cc1	inactive: 2%
CP(=O)(Nc1ccccc1F)Oc1ccccc1 (centres undefined)	inactive: -5%
CC(C)c1ccc(OP(C)(=O)Nc2ccc(SC(F)(F)F)cc2)cc1 (centres undefined)	inactive: -12%
O=C(OCCN1CCN(CCOCc2ccccc2)CC1)C(O)(c1ccccc1)c1ccccc1	inactive: -3%
CCOC(=O)c1ccc(NP(C)(=O)Oc2ccc(F)cc2)cc1 (centres undefined)	inactive: -11%
COc1ccc(OP(C)(=O)Nc2ccc(SC(F)(F)F)cc2)cc1 (centres undefined)	inactive: -2%
CCN(CC)CCCOC(=O)C(O)(c1ccccc1)C1CCCCC1 (centres undefined)	inactive: -4%
CP(=O)(Nc1ccccc1)Oc1ccc(F)cc1 (centres undefined)	inactive: -3%
COc1ccc(OP(C)(=O)Nc2cccc(Br)c2)cc1 (centres undefined)	inactive: -6%
CN(C)CCOC(=O)C(O)(c1ccccc1)C1CCCCC1 (centres undefined)	inactive: -2%
COc1ccc(NP(C)(=O)Oc2ccccc2OC)cc1 (centres undefined)	inactive: -1%
O=[N+]([O-])c1cc([N+](=O)[O-])c(NCC2CCS(=O)(=O)C2)c([N+](=O)[O-])c1 (centres undefined)	inactive: -3%
CCOP(C)(=S)SCC(=O)NC(C)(CC)C(=O)O (centres undefined)	inactive: -10%
CP(=O)(Nc1ccc2c(c1)OCCO2)Oc1ccccc1 (centres undefined)	inactive: 2%
Cc1ccccc1NP(C)(=O)Nc1ccccc1C	inactive: -7%
